System: NMRI mice
Experiment: Analgesia test by the tail-flick test on mice
Conditions: for % MPE: intravenous dosage 1 mg/kg

CN(C)C1(c2ccccc2)CCC(O)(c2cc3ccccc3n2C)CC1 (stereo not drawn)
% MPE: 100 (1) % MPE
ED50 intravenous (intravenous, peak of action 20 minutes after administration, regression analysis): 0.19 mg/kg

CN(C)C1(c2ccccc2)CCC(O)(c2csc3ccccc23)CC1 (stereo not drawn)
% MPE: 100 (1) % MPE

From patent US7183436B2, “Substituted 4-aminocyclohexanols” (dated 2007)
